Key:
Solubility in water = conditions: 20° C.
honeybees = experiment: Appetency of the honeybees (consumption of syrup in small cases, batches of 100 honeybees); format: in vivo; conditions: relative to pure sugar syrup
Description: It should be noted that the pollen has been made available to the honeybees in a sufficient amount inside the small cases, without being admixed to the syrup. The determinations have been performed every day and the length of the vertical bars of the diagrams hereabove, are proportional to the deviation of the observed results. They evidence a clearly higher […] case of the utilization of the compounds of this invention. The results mentioned in the preceding paragraphs substantially relate to experiments performed by means of Copper Gluconate. […] The results of these tests are gathered in Table 7 hereinafter in which the figures correspond to measures performed on honeybees placed in small cases, having pollen to their disposal, and are means expressed in microliters per honeybee and per day for N countings.

Varroa jacobsoni = experiment: Action against Varroa jacobsoni in full-size hives: counting of fallen/remaining Varroas, efficiency; format: in vivo
Protocol: 1°--A specific distinctive action against Varroa jacobsoni shown by the counting of the eliminated Varroas, when the hives are treated by nourishing materials with copper gluconate at different doses (0 g/l-0.2 g/l-0.5 g/l).
The honeybees have been fed with syrup of sucrose at 66% w/w containing increasing concentrations of Copper Gluconate.
Each hive was provided at its lower part with a plastic plate coated with a consistent grease. Each day at the same time, the plate was discarded and the counting of the Varroas fallen on the plate, was carried out. A grid surmounting this plate avoid that the honeybees may spontaneously proceed with the discharge of the Varroas.
The results shown in FIG. 2 have been obtained following experiments performed at full size in hives containing from 20,000 to 50,000 honeybees.
2°--The efficiency of the treatment has been defined as the ratio between the number of Varroas subsiding in the various colonies of an apiary after treatment by solutions at various concentrations, and the number of Varroas contained in the control hives, these two figures have been measured after treatment with Amitraze.
This experiment has been carried out in a series of 14 hives and the result thereof are compiled in the Table 3 figuring herein after.
These experiments allow to obtain the results of Table 3 above, and were carried out in full size on a set of 14 hives.
Each hive was given 6.75 l of syrup of sucrose at 66% w/w at various concentrations of copper gluconate ranging from 0.02 to 0.5 g/l.
Measurements of the falls of the Varroas have been performed, at first, every day then every three days starting from the initiation of the delivery of the syrup.
To this end, a plate coated with a consistent grease was arranged at the bottom of each hive and protected with a grid as above-mentioned, in order to allow the counting of the Varroas. The fall begins to be significative in relation to the control hives which have only been given pure sugar syrup, after absorption by the honeybees of 3 liters of syrup per hive in 10 days.
The counting of the remaining Varroas has been performed 2 days after the last delivery of syrup while submitting each hive to a treatment of shock by means of an acaricide (in these circumstances the marketed composition sold under the Tread Name AMITRAZE).
The efficiency of the treatment with Copper Gluconate is determined in ascribing the number of Varroas fallen during the treatment to the total number of Varroas resulting from the addition of fallen Varroas and existing Varoas.
The averages and the standard deviations have been calculated for the number of performed measures corresponding to the number of hives, this figure being mentioned between hyphens following the figures of the third column in Table 3.

Substance	water solubility (Solubility in water) [%]	Appetency, RELATIVE VALUES / PURE SUGAR SYRUP, AVERAGE (honeybees; average of tests)	Appetency, RELATIVE VALUES / PURE SUGAR SYRUP, TEST 1 (honeybees; test 1 (first concentration tested))	Appetency, RELATIVE VALUES / PURE SUGAR SYRUP, TEST 2 (honeybees; test 2 (second concentration tested))	EFFICIENCY (Varroa jacobsoni; 0,2 g/l copper gluconate in syrup)	EFFICIENCY (Varroa jacobsoni; 0,5 g/l copper gluconate in syrup)	EFFICIENCY (Varroa jacobsoni; 1 g/l copper gluconate in syrup)	mean efficiency with respect to the control hives (Varroa jacobsoni; all concentrations) [%]
Copper 1-aspartate	1							
Copper 1-glutamate	4							
Copper gluconate		102,9%	105,5%	100,3%	79,8%	74,7%	86,7%	80±6

— patent publication US5023359A, “Use of organic salts of copper for the treatment of honeybee's parasitic diseases” (priority 1990, dated 1991)
